Assay results published in patent publication EP2626066A1, “Combination therapy comprising selective VEGFR-2 inhibitors and MEK inhibitors” (Max-Planck-Gesellschaft zur Förderung der Wissenschaften …, priority 2012, dated 2013).

Assays:
[1] = tested on: H441 cells; conditions: Figure 4
[2] = tested on: pERK; conditions: in vitro, after VEGF stimulation had reduced it; Fig. 1c
[3] = tested on: VEGFR2; conditions: H1975 expressing ZD6474 resistance mutation of VEGFR2; in vitro
[4] = tested on: H441; conditions: H441, high VEGFR2; daily oral gavage ZD6474 50 mg/kg, PD0325901 12mg/kg; start at about 50mm^3; Fig. 10
Experimental: (§1) All animal procedures were approved by the local animal protection committee and the local authorities. H1975, H441 and H1650 cells (5x10^6 cells) were injected subcutaneously into male nude mice. […] Mice were treated daily by oral gavage of ZD6474 (50 mg/kg, solved in vehicle), PD0325901 (12mg/kg, dissolved in propylene glycol:water (1:1)), the combination of ZD6474 (50 mg/kg) and PD0325901 (12mg/kg) or vehicle detergent alone. Tumor size of tumors expressing high levels of VEGFR2 (H441, H1975) and tumor with low expression of VEGFR2 (H1650) were monitored measuring perpendicular diameters.
(§2) All animal procedures were approved by the local animal protection committee and the local authorities. High VEGFR2 expressing tumor cell H1975 and H441 (5x10^6 cells), and very low VEGFR2 expressing cells H1650 (5x10^6 cells) were injected subcutaneously into male nude mice. […] Mice were treated daily by oral gavage of ZD6474 (50 mg/kg, solved in vehicle), PD0325901 (12mg/kg, dissolved in propylene glycol:water (1:1)), the combination of ZD6474 (50 mg/kg) and PD0325901 (12mg/kg) or vehicle detergent alone. Tumor size of tumors expressing high levels of VEGFR2 (H441, H1975) and tumor with low expression of VEGFR2 (H1650) were monitored during treatment measuring perpendicular diameters.

[5] = tested on: H1650; conditions: H1650, very low VEGFR2; daily oral gavage ZD6474 50 mg/kg, PD0325901 12mg/kg; start at about 50mm^3; Fig. 10
Experimental: as §1, §2

[6] = tested on: H1975
Experimental: as §1, §2

[7] = tested on: H441 cells; assay: VEGF secretion ELISA assay, H441 cells; type: cell-based, human
Experimental: Cells were either treated with the indicated compounds or DMSO alone. After 4 hours cells were stimulated with 40 ng/ml of VEGF165, or incubated in medium containing DMSO only. Cells were then washed twice with PBS and supplemented with serum-free medium and allowed to secrete VEGF for 48 hours. Secretion of VEGF into cell culture supernatants was measured by Human VEGF Quantikine Kit (R&D Systems) according to manufacturer's instructions.

Question: COc1cc2c(Nc3ccc(Br)cc3F)ncnc2cc1OCC1CCN(C)CC1 [Vandetanib, N-(4-bromo-2-fluorophenyl)-6-methoxy-7-[(1-methylpiperidin-4-yl)methoxy]quinazolin-4-amine] was tested. Which “incorporation of BRDU as marker for cellular replication” value [1] did it give?
Answer: Its value is “not changed”.

Question: And the pERK signaling [2]?
Answer: The pERK signaling was “again increased”.

Question: What about the “ZD6474-mediated VEGFR2-dephosphorylation” value [3] of the same compound?
Answer: Its value is “abolished”.

Question: And the tumor volume [4]?
Answer: The tumor volume was “did not reduce the tumor volume”.

Question: What about the tumor volume [5] of the same compound?
Answer: Its tumor volume is “almost comparable to the non-treated control”.

Question: And the tumor volume ([6]; H1975, high VEGFR2, daily oral gavage ZD6474 50 mg/kg, PD0325901 12mg/kg, start at about 50mm^3, Fig. 10)?
Answer: Its tumor volume is “did not reduce the tumor volume”.

Question: And the tumor growth ([6]; mice with established tumors, Fig. 1b)?
Answer: The tumor growth was “inhibited tumor growth but failed to induce tumor regression”.

Question: What about the tumor vessel density ([6]; resected tumors, ZD6474 (75mg/kg) per Figure 8) of the same compound?
Answer: Its tumor vessel density is “strong reduction”.

Question: And the “establishment of tumors in vivo” value ([6]; treatment simultaneous to tumor inoculation, Fig. 1e)?
Answer: Its value is “completely abrogated”.

Question: And the “VEGF secretion under hypoxic conditions” value ([7]; ZD6474 (1µM), hypoxia (1% O2), Figure 6)?
Answer: Its value is “inhibits VEGF secretion”.

Question: What about the “VEGF-induced VEGF secretion” value ([7]; stimulation with VEGF, Zactima 1µM, Rapamycin 250nM) of the same compound?
Answer: Its value is “blunted”.
